The record followed here is patent publication US20030139352A1, “Inhibitors of ABC drug transporters in cancer cells” (priority 2001, published 2003).

Protein sequences, listed by entry. Tags and fused reporters are not part of them.
UniProt P08183, whole entry: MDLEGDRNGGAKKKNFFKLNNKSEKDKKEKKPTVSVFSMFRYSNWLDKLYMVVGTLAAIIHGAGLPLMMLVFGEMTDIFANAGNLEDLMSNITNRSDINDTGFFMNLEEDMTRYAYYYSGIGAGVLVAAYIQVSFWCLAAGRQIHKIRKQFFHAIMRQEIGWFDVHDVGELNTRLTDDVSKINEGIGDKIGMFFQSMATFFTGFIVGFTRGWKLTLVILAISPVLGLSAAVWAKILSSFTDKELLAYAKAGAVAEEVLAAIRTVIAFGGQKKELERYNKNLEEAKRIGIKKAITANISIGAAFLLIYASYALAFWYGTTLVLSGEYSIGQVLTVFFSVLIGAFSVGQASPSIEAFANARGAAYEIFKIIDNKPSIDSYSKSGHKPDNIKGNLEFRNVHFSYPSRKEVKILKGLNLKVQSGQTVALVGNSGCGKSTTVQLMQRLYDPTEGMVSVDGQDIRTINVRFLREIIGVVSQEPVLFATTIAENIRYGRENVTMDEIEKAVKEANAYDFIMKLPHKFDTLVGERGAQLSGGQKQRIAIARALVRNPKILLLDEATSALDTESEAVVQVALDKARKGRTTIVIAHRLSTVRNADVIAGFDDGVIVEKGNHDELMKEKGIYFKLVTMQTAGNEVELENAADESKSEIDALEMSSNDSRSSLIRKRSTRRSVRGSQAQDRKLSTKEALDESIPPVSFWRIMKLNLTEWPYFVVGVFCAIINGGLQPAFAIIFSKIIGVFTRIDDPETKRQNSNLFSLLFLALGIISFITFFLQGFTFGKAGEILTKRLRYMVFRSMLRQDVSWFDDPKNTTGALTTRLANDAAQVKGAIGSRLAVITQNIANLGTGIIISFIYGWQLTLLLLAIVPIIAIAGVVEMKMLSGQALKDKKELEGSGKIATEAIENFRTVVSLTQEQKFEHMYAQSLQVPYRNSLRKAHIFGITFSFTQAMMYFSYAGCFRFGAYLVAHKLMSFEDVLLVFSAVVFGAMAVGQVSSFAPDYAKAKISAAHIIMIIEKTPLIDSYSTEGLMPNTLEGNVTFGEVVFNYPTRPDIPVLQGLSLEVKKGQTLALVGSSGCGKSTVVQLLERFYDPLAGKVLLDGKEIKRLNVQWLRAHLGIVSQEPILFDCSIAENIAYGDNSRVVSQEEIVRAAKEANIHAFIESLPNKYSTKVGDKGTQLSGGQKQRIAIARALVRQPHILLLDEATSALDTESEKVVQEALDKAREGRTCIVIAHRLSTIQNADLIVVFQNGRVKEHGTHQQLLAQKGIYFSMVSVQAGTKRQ

In general, efflux ratio refers to a quotient of directional permeabilities that is used to spot active efflux.

Where two headings read alike, the source gives them in different places.

The target of data set [1] is T1, human PGP (Homo sapiens, UniProt P08183). To be noted: 15B-J (PGP), 10 μM in donor.
Data set [2] concerns the target T1, human PGP. The data set is described as follows: in vitro. The note with it: LLC-PK1, pH 7.2.
A short description of another data set: in vitro. The note with it: pig, LLC-PK1, pH 7.2.

For `CC(=O)O[C@H]1C(=O)[C@@]2(C)[C@H]([C@H](OC(=O)c3ccccc3)[C@]3(O)C[C@H](OC(=O)[C@H](O)[C@@H](NC(=O)c4ccccc4)c4ccccc4)C(C)=C1C3(C)C)[C@]1(OC(C)=O)CO[C@@H]1C[C@@H]2O` [Taxol, taxol], the “pmoles in Receiver” value was determined as 6 pmol at human PGP [1] (A→B, 30 min); 24 pmol on human PGP [1] (A→B, 120 min); 24 pmol on human PGP [1] (B→A, 30 min); 135 pmol on human PGP [1] (B→A, 120 min). In addition, the efflux ratio at 30 min, 10 μM on human PGP [2] is 3.8; in the data set “in vitro” it was 1.1. Besides, the efflux ratio at 60 min, 10 μM at human PGP [2] turned out to be 2.6; in “in vitro”, 1.4. Also, the efflux ratio at 90 min, 10 μM on human PGP [2] worked out at 4.4; in “in vitro”, 1.6. In addition, the efflux ratio at 120 min, 10 μM at human PGP [2] was determined as 5.7; in “in vitro” it was 1.9.
